Results as given in patent publication US9242973B2, “Chromane compounds” (CoMentis, Inc., priority 2012, dated 2016).

Test system: Aβ production in SK-N-BE(2) neuroblastoma cells
Assay: Test Example 3: Aβ production inhibition in cell (Aβ40 ELISA, SK-N-BE(2))
Settings: Homo sapiens, SKNBE2, 6 h, read-out: Test Example 3 IC50, SK-N-BE(2) cells, 6 hours, Aβ40 ELISA normalized by viability

SMILES | IC50
C[C@H]1Oc2ccc(-c3cccnc3F)cc2[C@@]2(COC(N)=N2)C12COC2 (racemic) [RP 77] | 920 nM
NC1=NC2(CO1)c1cc(NC(=O)c3ncc(Cl)cc3F)ccc1OCC21CC1 (centres unmarked) [RP 29] | 22 nM
